Experiments:
[1] = Stability in simulated intestinal fluid (SIF); conditions: SDS-gel electrophoresis
[2] = Stability in simulated gastric fluid (SGF); conditions: SDS-gel electrophoresis

For bovine serum albumin [BSA], the degradation [1] was “appearance of lower molecular degradation products after longer incubations” and the time to degradation [2] was no more than 2 min.
